Publication PMC12142581

By UniProt entry, the sequences of proteins in these tests, tags left out. Where a name states a change or a piece, a line headed by the entry shows the natural chain unless it says otherwise.
UniProt P22460, whole entry, looked up: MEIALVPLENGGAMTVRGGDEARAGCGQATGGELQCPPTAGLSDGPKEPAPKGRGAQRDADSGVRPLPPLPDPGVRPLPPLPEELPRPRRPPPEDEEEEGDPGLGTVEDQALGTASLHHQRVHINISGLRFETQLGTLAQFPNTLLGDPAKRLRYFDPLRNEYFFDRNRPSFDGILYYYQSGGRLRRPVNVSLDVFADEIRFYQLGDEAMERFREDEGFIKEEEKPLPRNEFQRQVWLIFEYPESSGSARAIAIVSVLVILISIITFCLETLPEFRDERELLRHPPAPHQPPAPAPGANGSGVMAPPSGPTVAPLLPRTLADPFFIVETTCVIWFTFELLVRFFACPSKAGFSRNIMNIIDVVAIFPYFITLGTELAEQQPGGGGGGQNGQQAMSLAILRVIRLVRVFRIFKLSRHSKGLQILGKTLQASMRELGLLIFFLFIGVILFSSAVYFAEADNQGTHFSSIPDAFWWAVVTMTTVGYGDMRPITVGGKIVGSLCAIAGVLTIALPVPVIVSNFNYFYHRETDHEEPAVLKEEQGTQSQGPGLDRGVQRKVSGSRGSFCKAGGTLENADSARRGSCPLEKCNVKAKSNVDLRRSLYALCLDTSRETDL
UniProt Q12809: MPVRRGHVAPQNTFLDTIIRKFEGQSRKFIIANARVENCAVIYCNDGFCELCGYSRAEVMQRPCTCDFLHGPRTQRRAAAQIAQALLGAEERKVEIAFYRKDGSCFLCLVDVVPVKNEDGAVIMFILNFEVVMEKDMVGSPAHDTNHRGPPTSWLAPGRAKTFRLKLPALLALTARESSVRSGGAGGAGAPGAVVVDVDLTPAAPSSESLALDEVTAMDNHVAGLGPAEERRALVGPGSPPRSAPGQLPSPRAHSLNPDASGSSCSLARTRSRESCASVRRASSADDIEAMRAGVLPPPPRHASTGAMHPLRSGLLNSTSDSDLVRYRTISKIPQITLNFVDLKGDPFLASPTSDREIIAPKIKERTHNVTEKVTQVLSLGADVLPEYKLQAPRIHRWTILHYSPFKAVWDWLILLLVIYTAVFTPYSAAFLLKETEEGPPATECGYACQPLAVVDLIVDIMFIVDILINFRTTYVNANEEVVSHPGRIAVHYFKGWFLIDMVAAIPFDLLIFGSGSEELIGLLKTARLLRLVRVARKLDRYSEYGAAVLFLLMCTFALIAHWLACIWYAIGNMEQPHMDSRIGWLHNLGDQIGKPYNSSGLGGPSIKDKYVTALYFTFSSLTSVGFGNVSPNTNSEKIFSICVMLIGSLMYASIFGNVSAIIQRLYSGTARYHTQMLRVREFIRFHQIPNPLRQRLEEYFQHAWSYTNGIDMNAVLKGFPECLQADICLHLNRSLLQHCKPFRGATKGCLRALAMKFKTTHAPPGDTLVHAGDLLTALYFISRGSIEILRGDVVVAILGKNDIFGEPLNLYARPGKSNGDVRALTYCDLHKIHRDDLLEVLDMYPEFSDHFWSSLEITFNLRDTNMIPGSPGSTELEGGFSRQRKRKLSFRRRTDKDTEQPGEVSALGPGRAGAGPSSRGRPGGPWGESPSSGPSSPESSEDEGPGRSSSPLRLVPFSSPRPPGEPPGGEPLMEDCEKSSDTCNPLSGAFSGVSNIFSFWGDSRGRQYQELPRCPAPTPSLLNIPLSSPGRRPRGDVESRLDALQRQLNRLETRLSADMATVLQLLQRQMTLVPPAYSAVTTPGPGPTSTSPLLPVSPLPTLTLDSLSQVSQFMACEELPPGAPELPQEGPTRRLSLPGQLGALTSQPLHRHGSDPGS
UniProt P22001, whole entry, looked up: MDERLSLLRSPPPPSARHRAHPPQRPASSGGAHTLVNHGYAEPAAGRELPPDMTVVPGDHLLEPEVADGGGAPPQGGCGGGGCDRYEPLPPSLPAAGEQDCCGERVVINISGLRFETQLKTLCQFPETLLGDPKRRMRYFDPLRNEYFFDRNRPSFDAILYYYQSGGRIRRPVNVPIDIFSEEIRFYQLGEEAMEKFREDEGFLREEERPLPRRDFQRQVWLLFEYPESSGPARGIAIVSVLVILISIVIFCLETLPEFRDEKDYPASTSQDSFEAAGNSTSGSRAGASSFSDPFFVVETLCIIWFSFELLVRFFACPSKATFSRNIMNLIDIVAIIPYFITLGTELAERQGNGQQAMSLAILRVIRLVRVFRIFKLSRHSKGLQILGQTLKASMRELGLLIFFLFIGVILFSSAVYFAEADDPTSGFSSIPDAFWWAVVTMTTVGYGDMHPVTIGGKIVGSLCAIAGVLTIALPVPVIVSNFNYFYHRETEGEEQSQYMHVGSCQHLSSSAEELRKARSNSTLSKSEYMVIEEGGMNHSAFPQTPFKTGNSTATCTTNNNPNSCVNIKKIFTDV
UniProt Q13936, whole entry, looked up: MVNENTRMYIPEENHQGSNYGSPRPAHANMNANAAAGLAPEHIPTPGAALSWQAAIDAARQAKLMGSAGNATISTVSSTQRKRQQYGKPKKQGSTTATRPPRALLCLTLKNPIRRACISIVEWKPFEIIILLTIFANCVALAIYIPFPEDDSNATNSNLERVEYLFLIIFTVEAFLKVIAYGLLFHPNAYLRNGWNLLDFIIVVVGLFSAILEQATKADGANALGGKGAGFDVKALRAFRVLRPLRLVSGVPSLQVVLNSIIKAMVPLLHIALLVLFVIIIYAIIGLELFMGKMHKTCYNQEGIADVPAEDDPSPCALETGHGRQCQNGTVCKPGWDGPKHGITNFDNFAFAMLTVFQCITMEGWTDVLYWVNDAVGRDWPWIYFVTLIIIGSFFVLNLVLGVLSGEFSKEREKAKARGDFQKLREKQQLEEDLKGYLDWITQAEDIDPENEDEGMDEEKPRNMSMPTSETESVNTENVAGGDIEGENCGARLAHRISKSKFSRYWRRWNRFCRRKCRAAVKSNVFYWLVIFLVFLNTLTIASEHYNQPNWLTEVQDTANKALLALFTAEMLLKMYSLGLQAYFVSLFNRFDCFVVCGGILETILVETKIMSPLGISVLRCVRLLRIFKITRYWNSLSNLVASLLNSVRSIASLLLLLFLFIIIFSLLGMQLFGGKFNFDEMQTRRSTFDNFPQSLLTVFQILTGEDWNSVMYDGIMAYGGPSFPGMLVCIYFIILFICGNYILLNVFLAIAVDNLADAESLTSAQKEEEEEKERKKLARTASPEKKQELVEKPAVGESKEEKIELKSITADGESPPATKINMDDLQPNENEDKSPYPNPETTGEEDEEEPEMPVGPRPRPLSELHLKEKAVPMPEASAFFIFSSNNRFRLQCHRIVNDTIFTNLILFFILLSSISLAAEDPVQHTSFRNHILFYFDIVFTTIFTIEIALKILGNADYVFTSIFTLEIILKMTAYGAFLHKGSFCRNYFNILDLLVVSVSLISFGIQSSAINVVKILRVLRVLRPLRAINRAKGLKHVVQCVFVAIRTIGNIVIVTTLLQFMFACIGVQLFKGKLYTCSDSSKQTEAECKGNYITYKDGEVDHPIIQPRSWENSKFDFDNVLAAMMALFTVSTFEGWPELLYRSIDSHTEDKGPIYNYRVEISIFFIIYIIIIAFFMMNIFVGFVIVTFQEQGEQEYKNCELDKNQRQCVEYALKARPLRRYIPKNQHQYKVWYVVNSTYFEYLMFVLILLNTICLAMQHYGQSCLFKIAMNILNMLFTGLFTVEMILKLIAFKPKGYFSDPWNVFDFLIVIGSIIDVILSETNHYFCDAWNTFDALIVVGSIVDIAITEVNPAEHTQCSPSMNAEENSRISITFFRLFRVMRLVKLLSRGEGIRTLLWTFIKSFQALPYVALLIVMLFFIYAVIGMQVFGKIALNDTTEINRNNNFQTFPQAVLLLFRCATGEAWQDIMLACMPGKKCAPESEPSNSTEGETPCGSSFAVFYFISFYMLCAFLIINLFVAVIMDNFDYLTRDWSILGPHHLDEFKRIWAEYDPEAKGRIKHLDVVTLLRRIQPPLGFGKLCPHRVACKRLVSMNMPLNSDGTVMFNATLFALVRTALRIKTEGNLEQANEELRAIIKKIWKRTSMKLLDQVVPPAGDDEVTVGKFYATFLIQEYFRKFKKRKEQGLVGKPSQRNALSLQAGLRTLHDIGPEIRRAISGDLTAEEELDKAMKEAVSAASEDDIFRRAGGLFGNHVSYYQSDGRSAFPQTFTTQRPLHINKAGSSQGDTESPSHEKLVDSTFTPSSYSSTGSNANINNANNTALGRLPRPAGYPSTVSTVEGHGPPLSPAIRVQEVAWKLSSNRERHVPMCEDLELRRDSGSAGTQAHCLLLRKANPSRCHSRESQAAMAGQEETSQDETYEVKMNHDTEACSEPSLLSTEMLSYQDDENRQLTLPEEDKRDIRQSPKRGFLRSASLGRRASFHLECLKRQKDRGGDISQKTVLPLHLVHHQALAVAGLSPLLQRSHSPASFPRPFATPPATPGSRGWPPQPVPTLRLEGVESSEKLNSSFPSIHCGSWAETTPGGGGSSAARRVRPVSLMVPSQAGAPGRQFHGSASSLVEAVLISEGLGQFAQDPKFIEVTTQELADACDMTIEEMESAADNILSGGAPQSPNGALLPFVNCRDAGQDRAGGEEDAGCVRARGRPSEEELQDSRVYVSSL
UniProt Q14524, whole entry, looked up: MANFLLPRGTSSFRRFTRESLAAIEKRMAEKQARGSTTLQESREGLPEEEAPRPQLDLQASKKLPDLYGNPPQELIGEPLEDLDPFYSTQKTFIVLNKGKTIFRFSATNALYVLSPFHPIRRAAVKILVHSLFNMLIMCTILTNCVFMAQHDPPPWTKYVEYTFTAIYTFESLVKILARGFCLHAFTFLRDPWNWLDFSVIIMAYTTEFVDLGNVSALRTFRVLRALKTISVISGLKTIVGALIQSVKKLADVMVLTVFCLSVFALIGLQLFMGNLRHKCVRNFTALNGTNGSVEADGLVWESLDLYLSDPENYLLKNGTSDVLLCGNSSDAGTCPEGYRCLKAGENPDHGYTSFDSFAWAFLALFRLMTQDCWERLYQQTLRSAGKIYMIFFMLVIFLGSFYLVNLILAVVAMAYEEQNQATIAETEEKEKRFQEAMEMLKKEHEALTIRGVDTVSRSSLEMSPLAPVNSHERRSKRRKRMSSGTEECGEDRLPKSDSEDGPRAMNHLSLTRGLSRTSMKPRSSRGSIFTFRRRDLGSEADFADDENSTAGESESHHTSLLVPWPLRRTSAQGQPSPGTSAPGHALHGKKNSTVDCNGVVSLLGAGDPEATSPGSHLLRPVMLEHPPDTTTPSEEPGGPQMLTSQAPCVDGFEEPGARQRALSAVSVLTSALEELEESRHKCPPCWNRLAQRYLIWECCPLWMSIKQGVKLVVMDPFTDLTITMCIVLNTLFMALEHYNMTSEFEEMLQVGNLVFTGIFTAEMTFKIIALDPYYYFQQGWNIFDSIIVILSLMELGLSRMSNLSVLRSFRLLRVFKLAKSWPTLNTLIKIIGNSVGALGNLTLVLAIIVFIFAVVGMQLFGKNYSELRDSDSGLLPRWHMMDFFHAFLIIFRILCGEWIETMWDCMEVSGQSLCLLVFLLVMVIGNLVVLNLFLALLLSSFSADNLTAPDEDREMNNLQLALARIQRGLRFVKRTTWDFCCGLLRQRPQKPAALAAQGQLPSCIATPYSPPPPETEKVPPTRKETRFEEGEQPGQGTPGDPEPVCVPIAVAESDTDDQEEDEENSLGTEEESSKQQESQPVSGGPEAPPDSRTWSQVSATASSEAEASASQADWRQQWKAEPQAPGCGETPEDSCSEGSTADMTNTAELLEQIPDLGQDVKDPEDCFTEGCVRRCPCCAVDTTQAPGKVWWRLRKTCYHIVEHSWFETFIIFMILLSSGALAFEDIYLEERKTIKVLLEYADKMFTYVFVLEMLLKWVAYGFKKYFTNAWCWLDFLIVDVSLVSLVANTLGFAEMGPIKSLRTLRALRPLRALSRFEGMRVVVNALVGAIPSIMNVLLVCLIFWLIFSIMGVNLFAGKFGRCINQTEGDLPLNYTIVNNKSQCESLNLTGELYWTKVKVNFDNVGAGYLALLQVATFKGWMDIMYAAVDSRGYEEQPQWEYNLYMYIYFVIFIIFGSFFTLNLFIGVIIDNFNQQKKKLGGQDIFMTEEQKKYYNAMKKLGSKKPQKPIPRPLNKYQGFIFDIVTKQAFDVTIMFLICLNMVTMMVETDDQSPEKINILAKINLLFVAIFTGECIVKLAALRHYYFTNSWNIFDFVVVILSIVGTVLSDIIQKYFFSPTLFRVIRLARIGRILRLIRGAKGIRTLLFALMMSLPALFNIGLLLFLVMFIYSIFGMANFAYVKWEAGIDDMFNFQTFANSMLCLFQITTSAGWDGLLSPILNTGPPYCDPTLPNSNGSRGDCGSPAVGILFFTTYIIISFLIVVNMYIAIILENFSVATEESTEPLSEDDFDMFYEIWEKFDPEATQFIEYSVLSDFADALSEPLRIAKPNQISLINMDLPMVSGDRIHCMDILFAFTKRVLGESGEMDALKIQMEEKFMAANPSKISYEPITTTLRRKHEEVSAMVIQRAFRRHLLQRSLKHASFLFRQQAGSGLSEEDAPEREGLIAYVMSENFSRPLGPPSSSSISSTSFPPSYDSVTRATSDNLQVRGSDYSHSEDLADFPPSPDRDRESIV

How the values were obtained:
In vivo IV/PO PK = settings: for In vivo plasma CLtotal: Table S16
Ames strains = assay: 4-strain Ames assay (with and without S9)
[1] = Phase 1 and phase 2 metabolism, liver microsomes with alamethicin; settings: for % Remaining T=60 / CLhep: 1 µM
CYP3A4 = assay: CYP induction, gene expression (mRNA) in cryopreserved human hepatocytes
CYP2B6 = assay: as above
hCav3.2 = hCav3.2 (Homo sapiens, UniProt O95180); assay: Cardiac Ion Channel Panel (QPatch HT); settings: 10 μM
hKv1.5 = hKv1.5 (Homo sapiens, UniProt P22460); assay: Cardiac Ion Channel Panel (QPatch HT); settings: 10 μM
hERG = hERG (Homo sapiens, UniProt Q12809); assay: Cardiac Ion Channel Panel (QPatch HT); settings: 10 μM
hHCN2 = hHCN2 (Homo sapiens, UniProt Q9UL51); assay: Cardiac Ion Channel Panel (QPatch HT); settings: 10 μM
hKv1.3 = hKv1.3 (Homo sapiens, UniProt P22001); assay: Cardiac Ion Channel Panel (QPatch HT); settings: 10 μM
hKvLQT1/mink = hKvLQT1/mink (Homo sapiens, UniProt P51787); assay: Cardiac Ion Channel Panel (QPatch HT); settings: 10 μM
hCav1.2 = hCav1.2 (Homo sapiens, UniProt Q13936); assay: Cardiac Ion Channel Panel (QPatch HT); settings: 10 μM
hNav1.5 = hNav1.5 (Homo sapiens, UniProt Q14524); assay: Cardiac Ion Channel Panel (QPatch HT); settings: 10 µM
[2] = tested on: frontal cortex spectral power; assay: Quantitative EEG (qEEG); settings: 0.3, 1, 3, 10 mg/kg PO, 1–2 h post dosing
[3] = Compound specific parameters (logD, pKa)
[4] = tested on: MK-801-induced hyperlocomotion; assay: MK-801-induced hyperlocomotion; settings: PO, 60 min pretreatment, rat
[5] = Rat IV plasma:brain level (PBL) cassette; settings: SD rat, 0.2 mg/kg IV, 0.25 h
[6] = Metabolic stability in liver microsomes; settings: for clearance / intrinsic clearance: up to 1 μM; for CLhep: microsomes

Molecule `Cc1nnc2sc3c(NCc4ccc(C(C)(C)O)cc4)ncnc3c2c1C` has a CLp (In vivo IV/PO PK; dog IV 1 mg/kg) of 0.3 L/h/kg, an MRT (In vivo IV/PO PK; dog IV 1 mg/kg) of 5.05 h and a Vss (In vivo IV/PO PK; dog IV 1 mg/kg) of 1.4 L/kg. The t1/2 (In vivo IV/PO PK; dog IV 1 mg/kg) was 4.17 h, the “% F” value (In vivo IV/PO PK; dog PO 3 mg/kg) was 54% and the “AUC0–∞” value (In vivo IV/PO PK; dog PO 3 mg/kg) was 5920 ng·h/mL. It also gave a Cmax (In vivo IV/PO PK; dog PO 3 mg/kg) of 0.766 µg/mL, a Tmax (In vivo IV/PO PK; dog PO 3 mg/kg) of 2.0 h and a CLp (In vivo IV/PO PK; minipig IV 2 mg/kg) of 0.462 L/h/kg. For the same molecule, the MRT (In vivo IV/PO PK; minipig IV 2 mg/kg) was 4.9 h, the Vss (In vivo IV/PO PK; minipig IV 2 mg/kg) was 2.2 L/kg and the t1/2 (In vivo IV/PO PK; minipig IV 2 mg/kg) was 5.50 h. For the same molecule, the “% F” value (In vivo IV/PO PK; minipig PO 5 mg/kg) was 50%, the “AUC0–∞” value (In vivo IV/PO PK; minipig PO 5 mg/kg) was 8000 ng·h/mL and the Cmax (In vivo IV/PO PK; minipig PO 5 mg/kg) was 0.6 µg/mL. The Tmax (In vivo IV/PO PK; minipig PO 5 mg/kg) was 1.2 h, the “In vivo plasma CLtotal” value (In vivo IV/PO PK; minipig) was 0.46 L/h/kg and the CLp (In vivo IV/PO PK; monkey IV 1 mg/kg) was 0.3 L/h/kg. The MRT (In vivo IV/PO PK; monkey IV 1 mg/kg) was 3.16 h, the Vss (In vivo IV/PO PK; monkey IV 1 mg/kg) was 0.9 L/kg and the t1/2 (In vivo IV/PO PK; monkey IV 1 mg/kg) was 4.54 h. The “AUC0–∞” value (In vivo IV/PO PK; monkey PO 3 mg/kg) was 4696 ng·h/mL, the Cmax (In vivo IV/PO PK; monkey PO 3 mg/kg) was 0.96 µg/mL and the Tmax (In vivo IV/PO PK; monkey PO 3 mg/kg) was 2.0 h. The “In vivo plasma CLtotal” value (In vivo IV/PO PK; monkey) was 0.32 L/h/kg, the CLp (In vivo IV/PO PK; rat IV 1 mg/kg) was 0.282 L/h/kg and the MRT (In vivo IV/PO PK; rat IV 1 mg/kg) was 2.65 h. For the same molecule, the Vss (In vivo IV/PO PK; rat IV 1 mg/kg) was 0.7 L/kg, the t1/2 (In vivo IV/PO PK; rat IV 1 mg/kg) was 2.63 h and the “AUC0–∞” value (In vivo IV/PO PK; rat PO 3 mg/kg) was 14,801 h·ng/mL. For the same molecule, the Cmax (In vivo IV/PO PK; rat PO 3 mg/kg) was 1.695 µg/mL, the Tmax (In vivo IV/PO PK; rat PO 3 mg/kg) was 1.5 h and the “% F” value (In vivo IV/PO PK; rat PO 30 mg/kg) was 89%. For the same molecule, the “AUC0–∞” value (In vivo IV/PO PK; rat PO 30 mg/kg) was 101,444 h·ng/mL, the Cmax (In vivo IV/PO PK; rat PO 30 mg/kg) was 8.985 µg/mL and the Tmax (In vivo IV/PO PK; rat PO 30 mg/kg) was 3.0 h. For the same molecule, the “% F” value (In vivo IV/PO PK; rat PO, dose not named (conclusion)) was at least 89%, the “In vivo plasma CLtotal” value (In vivo IV/PO PK; rat) was 0.26 L/h/kg and the Ames result (Ames strains) was “negative”. The “% remaining after 1 h” value ([1]; human liver microsomes, regardless of cofactor) was over 85%, the “% Remaining T=60” value ([1]; human, with NADPH) was 94% and the CLhep ([1]; human, with NADPH) was under 0.282 L/h/kg. For the same molecule, the “% Remaining T=60” value ([1]; human, with NADPH and UDPGA) was 91%, the CLhep ([1]; human, with NADPH and UDPGA) was under 0.282 L/h/kg and the “% Remaining T=60” value ([1]; human, with UDPGA) was 110%. For the same molecule, the CLhep ([1]; human, with UDPGA) was under 0.282 L/h/kg, the “% Remaining T=60” value ([1]; monkey, with NADPH) was 17% and the CLhep ([1]; monkey, with NADPH) was 1.72 L/h/kg. For the same molecule, the “% Remaining T=60” value ([1]; monkey, with NADPH and UDPGA) was 25%, the CLhep ([1]; monkey, with NADPH and UDPGA) was 1.58 L/h/kg and the “% Remaining T=60” value ([1]; monkey, with UDPGA) was 80%. For the same molecule, the CLhep ([1]; monkey, with UDPGA) was 0.588 L/h/kg, the “Thermodynamic solubility, FaSSIF” value (Thermodynamic solubility; FaSSIF) was 0.0077 mg/mL and the “Thermodynamic solubility, FeSSIF” value (Thermodynamic solubility; FeSSIF) was 0.037 mg/mL. The “Thermodynamic solubility, SGF” value (Thermodynamic solubility; SGF) was 0.13 mg/mL, the Thermodynamic solubility (Thermodynamic solubility; first of four values (pH7.4 per footnote b186)) was 0.0015 mg/mL and the CYP3A4 gene expression (CYP3A4; 0.1 µM, donor 1) was 0.88 ± 0.03 fold of DMSO control. For the same molecule, the CYP3A4 gene expression (CYP3A4; 0.1 µM, donor 2) was 1.28 ± 0.10 fold of DMSO control, the CYP3A4 gene expression (CYP3A4; 0.1 µM, donor 3) was 2.27 ± 0.50 fold of DMSO control and the CYP3A4 gene expression (CYP3A4; 0.3 µM, donor 1) was 1.53 ± 0.80 fold of DMSO control. For the same molecule, the CYP3A4 gene expression (CYP3A4; 0.3 µM, donor 2) was 1.32 ± 0.14 fold of DMSO control, the CYP3A4 gene expression (CYP3A4; 0.3 µM, donor 3) was 1.73 ± 0.32 fold of DMSO control and the CYP3A4 gene expression (CYP3A4; 1 µM, donor 1) was 1.40 ± 0.75 fold of DMSO control. For the same molecule, the CYP3A4 gene expression (CYP3A4; 1 µM, donor 2) was 1.46 ± 0.05 fold of DMSO control, the CYP3A4 gene expression (CYP3A4; 1 µM, donor 3) was 1.75 ± 0.17 fold of DMSO control and the CYP3A4 gene expression (CYP3A4; 3 µM, donor 1) was 1.93 ± 0.50 fold of DMSO control. For the same molecule, the CYP3A4 gene expression (CYP3A4; 3 µM, donor 2) was 1.41 ± 0.13 fold of DMSO control, the CYP3A4 gene expression (CYP3A4; 3 µM, donor 3) was 3.16 ± 0.26 fold of DMSO control and the CYP3A4 gene expression (CYP3A4; 10 µM, donor 1) was 3.13 ± 0.31 fold of DMSO control. The CYP3A4 gene expression (CYP3A4; 10 µM, donor 2) was 1.17 ± 0.05 fold of DMSO control, the CYP3A4 gene expression (CYP3A4; 10 µM, donor 3) was 2.41 ± 0.05 fold of DMSO control and the CYP2B6 gene expression (CYP2B6; 0.1 µM, donor 1) was 0.97 ± 0.10 fold of DMSO control. For the same molecule, the CYP2B6 gene expression (CYP2B6; 0.1 µM, donor 2) was 0.86 ± 0.13 fold of DMSO control, the CYP2B6 gene expression (CYP2B6; 0.1 µM, donor 3) was 1.54 ± 0.20 fold of DMSO control and the CYP2B6 gene expression (CYP2B6; 0.3 µM, donor 1) was 1.36 ± 0.46 fold of DMSO control. The CYP2B6 gene expression (CYP2B6; 0.3 µM, donor 2) was 0.82 ± 0.13 fold of DMSO control, the CYP2B6 gene expression (CYP2B6; 0.3 µM, donor 3) was 1.73 ± 0.33 fold of DMSO control and the CYP2B6 gene expression (CYP2B6; 1 µM, donor 1) was 1.45 ± 0.35 fold of DMSO control. The CYP2B6 gene expression (CYP2B6; 1 µM, donor 2) was 0.88 ± 0.14 fold of DMSO control, the CYP2B6 gene expression (CYP2B6; 1 µM, donor 3) was 1.51 ± 0.04 fold of DMSO control and the CYP2B6 gene expression (CYP2B6; 3 µM, donor 1) was 1.41 ± 0.32 fold of DMSO control. For the same molecule, the CYP2B6 gene expression (CYP2B6; 3 µM, donor 2) was 0.75 ± 0.05 fold of DMSO control, the CYP2B6 gene expression (CYP2B6; 3 µM, donor 3) was 2.43 ± 0.09 fold of DMSO control and the CYP2B6 gene expression (CYP2B6; 10 µM, donor 2) was 0.43 ± 0.03 fold of DMSO control. For the same molecule, the CYP2B6 gene expression (CYP2B6; 10 µM, donor 3) was 1.93 ± 0.07 fold of DMSO control, the “Mean % Inhibition” value (hCav3.2) was 8.3% and the “Mean % Inhibition” value (hKv1.5) was 0.3%. The “Mean % Inhibition” value (hERG) was 4.2%, the “Mean % Inhibition” value (hHCN2) was 3.9% and the “Mean % Inhibition” value (hKv1.3) was -1.0%. The “Mean % Inhibition” value (hKvLQT1/mink) was 1.5%, the “Mean % Inhibition” value (hCav1.2) was 12.4% and the “Mean % Inhibition” value (hNav1.5; Phasic) was 2.8%. For the same molecule, the “Mean % Inhibition” value (hNav1.5; Tonic) was 3.0%, the “effect on qEEG power during wake” value [2] was “robust, dose-dependent increase in high gamma power” and the logD [3] was 3.5. For the same molecule, the “MED, MK-801-induced hyperlocomotion” value [4] was 3 mg/kg, the Kp,brain:plasma [5] was 0.55 and the Kp,uu,brain:plasma [5] was 0.41. For the same molecule, the clearance ([6]; NHP microsomes) was 1.74 L/h/kg, the clearance ([6]; dog microsomes) was 0.93 L/h/kg and the intrinsic clearance ([6]; human liver microsomes) was 0.31 L/h/kg. The CLhep ([6]; dog, 0.1 µM) was 1.42 ± 0.018 L/h/kg, the CLhep ([6]; dog, 0.3 µM) was 1.16 ± 0.006 L/h/kg and the CLhep ([6]; dog, 1 µM) was 0.93 ± 0.012 L/h/kg. The CLhep ([6]; human, 0.1 µM) was 0.31 ± 0.012 L/h/kg, the CLhep ([6]; human, 0.3 µM) was 0.37 ± 0.0066 L/h/kg and the CLhep ([6]; human, 1 µM) was 0.31 ± 0.006 L/h/kg. The CLhep ([6]; monkey, 0.1 µM) was 1.8 ± 0.054 L/h/kg, the CLhep ([6]; monkey, 0.3 µM) was 1.78 ± 0.03 L/h/kg and the CLhep ([6]; monkey, 1 µM) was 1.74 ± 0.024 L/h/kg. It also gave a CLhep ([6]; rat, 0.1 µM) of 2.15 ± 0.006 L/h/kg, a CLhep ([6]; rat, 0.3 µM) of 1.73 ± 0.018 L/h/kg and a CLhep ([6]; rat, 1 µM) of 1.51 ± 0.018 L/h/kg. The intrinsic clearance ([6]; rat liver microsomes) was 2.15 L/h/kg.
